Only a part is listed here, and it is no random draw. Measured potencies and affinities stand elsewhere. Some salts and complexes are drawn in separate pieces, as the source files them; their charges need not balance. Activity calls are given as the source filed them.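 Rule for the calls: active = displacement of at least 50% at 20 µM, with a fluorescence ratio check between 0.3 and a set limit; inactive = the rest.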
Each compound was assayed against E3 ubiquitin-protein ligase SIAH1 (Homo sapiens) (UniProt Q8IUQ4) (assay: blockers of Siah-1 interaction with plectin peptide – biochemical, fluorescence polarization, rhodamine-plectin, uHTS, primary screen (AID 1817;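 note: plate controls were Siah plus tracer with DMSO for no effect and tracer alone without Siah for full effect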)). Details: Siah-1 / rhodamine-plectin peptide fluorescence polarization; at 20 µM; stronger effect = higher value.

Amino acid sequences for entries named in this document (tags omitted).
UniProt Q8IUQ4, whole entry: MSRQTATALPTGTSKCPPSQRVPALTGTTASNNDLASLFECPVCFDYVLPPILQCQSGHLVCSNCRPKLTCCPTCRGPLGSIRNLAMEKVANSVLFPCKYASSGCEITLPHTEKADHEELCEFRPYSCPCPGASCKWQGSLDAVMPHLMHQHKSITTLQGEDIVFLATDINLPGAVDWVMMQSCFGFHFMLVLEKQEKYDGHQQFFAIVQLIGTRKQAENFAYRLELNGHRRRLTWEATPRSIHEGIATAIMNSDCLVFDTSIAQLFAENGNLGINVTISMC
UniProt Q15149, whole entry partner: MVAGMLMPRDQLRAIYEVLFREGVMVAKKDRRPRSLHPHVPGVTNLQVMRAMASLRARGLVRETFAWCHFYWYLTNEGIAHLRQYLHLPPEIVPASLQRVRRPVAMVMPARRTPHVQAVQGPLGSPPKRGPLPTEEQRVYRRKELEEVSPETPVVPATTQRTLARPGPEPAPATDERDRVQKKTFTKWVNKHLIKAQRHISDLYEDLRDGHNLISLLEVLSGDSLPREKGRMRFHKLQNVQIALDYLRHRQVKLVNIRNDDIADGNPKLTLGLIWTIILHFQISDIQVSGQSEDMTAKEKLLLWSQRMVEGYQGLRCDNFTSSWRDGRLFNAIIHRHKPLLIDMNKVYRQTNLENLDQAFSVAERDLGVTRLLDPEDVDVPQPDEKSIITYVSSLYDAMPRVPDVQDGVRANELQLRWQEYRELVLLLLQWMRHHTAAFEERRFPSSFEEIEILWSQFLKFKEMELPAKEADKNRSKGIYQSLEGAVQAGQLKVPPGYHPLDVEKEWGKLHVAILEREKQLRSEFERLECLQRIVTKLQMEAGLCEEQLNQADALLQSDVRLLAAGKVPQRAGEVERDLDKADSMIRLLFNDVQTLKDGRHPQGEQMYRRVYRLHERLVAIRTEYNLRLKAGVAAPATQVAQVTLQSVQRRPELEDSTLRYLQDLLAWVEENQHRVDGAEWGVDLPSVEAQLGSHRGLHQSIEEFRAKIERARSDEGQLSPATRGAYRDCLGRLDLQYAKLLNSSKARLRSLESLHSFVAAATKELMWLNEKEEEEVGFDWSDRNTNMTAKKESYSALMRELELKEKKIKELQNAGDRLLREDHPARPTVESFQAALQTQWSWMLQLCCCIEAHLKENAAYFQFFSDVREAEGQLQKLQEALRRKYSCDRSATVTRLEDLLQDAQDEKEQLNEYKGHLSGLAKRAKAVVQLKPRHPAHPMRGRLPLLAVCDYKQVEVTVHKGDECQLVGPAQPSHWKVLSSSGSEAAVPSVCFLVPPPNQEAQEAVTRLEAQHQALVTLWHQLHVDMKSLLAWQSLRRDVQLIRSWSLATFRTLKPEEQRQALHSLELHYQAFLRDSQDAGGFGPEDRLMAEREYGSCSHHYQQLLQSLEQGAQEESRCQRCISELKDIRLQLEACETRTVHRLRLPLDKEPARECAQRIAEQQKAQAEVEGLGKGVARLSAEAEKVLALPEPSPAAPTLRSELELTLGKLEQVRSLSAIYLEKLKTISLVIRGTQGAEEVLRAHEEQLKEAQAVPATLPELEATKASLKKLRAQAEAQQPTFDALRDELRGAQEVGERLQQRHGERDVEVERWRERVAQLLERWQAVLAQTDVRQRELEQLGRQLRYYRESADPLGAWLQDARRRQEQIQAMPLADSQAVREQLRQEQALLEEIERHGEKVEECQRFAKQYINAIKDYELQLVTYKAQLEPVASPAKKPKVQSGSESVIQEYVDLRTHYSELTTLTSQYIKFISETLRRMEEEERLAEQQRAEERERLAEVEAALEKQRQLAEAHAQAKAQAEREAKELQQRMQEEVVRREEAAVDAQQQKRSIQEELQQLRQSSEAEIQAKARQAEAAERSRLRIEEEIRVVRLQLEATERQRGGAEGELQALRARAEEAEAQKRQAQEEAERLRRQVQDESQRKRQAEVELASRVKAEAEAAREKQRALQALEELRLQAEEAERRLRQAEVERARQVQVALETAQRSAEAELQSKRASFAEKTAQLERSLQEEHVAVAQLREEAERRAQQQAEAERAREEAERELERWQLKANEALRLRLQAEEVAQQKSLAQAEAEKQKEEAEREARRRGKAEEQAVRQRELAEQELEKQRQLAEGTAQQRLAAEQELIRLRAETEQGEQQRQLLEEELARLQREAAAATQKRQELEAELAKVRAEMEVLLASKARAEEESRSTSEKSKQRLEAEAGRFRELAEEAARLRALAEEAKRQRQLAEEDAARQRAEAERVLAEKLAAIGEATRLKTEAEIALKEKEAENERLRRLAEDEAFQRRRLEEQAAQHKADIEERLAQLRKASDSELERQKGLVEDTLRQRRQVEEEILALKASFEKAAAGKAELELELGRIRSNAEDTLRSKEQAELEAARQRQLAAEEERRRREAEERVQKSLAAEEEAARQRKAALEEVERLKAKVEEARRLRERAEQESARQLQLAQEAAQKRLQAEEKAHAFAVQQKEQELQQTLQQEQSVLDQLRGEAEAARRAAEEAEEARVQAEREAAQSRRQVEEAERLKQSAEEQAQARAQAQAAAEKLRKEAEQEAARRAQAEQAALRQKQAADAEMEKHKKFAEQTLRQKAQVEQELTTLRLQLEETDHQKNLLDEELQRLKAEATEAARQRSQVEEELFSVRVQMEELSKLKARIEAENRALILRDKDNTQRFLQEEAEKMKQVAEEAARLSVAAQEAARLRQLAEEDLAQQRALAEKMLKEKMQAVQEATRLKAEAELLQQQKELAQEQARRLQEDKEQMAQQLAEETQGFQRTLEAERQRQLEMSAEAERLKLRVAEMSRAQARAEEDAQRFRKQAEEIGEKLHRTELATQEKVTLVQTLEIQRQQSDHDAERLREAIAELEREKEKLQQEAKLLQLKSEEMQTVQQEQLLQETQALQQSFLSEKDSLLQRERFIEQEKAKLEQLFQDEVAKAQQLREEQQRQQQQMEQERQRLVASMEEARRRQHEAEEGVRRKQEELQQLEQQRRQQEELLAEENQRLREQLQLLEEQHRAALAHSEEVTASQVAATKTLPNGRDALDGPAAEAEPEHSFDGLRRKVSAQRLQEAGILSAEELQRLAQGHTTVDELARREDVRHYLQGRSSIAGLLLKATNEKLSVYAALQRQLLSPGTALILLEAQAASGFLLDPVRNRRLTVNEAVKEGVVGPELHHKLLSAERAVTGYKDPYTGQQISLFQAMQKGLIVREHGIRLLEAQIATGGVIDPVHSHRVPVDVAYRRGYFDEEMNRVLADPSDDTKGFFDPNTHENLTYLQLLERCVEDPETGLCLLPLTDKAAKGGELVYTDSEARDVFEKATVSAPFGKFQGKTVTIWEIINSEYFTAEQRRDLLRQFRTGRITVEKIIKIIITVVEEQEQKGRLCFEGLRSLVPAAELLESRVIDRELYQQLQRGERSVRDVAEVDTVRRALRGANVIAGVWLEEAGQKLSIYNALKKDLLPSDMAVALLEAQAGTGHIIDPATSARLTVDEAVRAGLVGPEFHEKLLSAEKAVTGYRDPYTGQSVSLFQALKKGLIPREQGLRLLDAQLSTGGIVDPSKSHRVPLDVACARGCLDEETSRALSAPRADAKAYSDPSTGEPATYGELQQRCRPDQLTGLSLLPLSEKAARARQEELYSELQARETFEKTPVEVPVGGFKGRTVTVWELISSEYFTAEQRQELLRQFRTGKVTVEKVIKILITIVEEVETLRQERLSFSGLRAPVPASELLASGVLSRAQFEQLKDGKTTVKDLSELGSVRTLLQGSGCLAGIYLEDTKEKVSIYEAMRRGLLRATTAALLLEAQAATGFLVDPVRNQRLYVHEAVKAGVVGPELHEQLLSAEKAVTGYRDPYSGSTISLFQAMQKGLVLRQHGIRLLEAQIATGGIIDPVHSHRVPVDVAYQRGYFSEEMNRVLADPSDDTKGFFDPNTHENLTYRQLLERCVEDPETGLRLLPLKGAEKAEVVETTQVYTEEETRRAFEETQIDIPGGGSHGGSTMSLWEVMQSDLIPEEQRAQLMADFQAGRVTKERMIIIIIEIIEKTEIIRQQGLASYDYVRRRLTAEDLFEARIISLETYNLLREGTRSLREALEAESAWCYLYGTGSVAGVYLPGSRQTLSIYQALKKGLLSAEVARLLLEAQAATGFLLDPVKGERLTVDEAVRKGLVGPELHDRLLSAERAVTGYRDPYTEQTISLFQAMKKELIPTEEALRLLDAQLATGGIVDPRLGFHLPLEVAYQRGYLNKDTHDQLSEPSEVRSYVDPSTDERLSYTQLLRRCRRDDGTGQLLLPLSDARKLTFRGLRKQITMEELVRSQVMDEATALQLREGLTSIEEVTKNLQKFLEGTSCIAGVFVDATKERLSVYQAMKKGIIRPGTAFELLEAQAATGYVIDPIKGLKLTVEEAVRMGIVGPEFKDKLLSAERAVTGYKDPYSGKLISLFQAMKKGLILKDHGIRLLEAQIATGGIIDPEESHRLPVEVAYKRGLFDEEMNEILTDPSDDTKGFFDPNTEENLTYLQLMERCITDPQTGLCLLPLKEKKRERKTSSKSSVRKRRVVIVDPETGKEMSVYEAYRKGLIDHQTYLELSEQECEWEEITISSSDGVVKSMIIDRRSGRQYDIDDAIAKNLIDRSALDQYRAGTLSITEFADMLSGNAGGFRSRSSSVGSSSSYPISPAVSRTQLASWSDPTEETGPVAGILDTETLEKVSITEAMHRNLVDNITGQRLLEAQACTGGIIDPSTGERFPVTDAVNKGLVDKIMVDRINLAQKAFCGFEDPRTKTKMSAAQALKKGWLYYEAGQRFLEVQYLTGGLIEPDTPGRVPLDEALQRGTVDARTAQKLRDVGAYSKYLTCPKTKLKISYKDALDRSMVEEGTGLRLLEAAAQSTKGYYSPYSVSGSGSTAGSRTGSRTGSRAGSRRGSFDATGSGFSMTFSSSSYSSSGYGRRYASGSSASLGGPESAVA

Compound | displacement
CP(=O)(Nc1ccccc1F)Oc1ccccc1 (stereo not given) | inactive: 3.8%
CC(C)c1ccc(OP(C)(=O)Nc2ccc(SC(F)(F)F)cc2)cc1 (stereo not given) | inactive: -0.9%
O=C(OC1CN2CCC1CC2)c1ccc([N+](=O)[O-])cc1 (stereo not given) | inactive: 0.9%
O=C(OCCN1CCN(CCOCc2ccccc2)CC1)C(O)(c1ccccc1)c1ccccc1 | inactive: 5.3%
COc1ccc2c(c1O)-c1c(O)c(OC)cc3c1[C@H](C2)[N+](C)(C)CC3.O=[N+]([O-])c1cc([N+](=O)[O-])c([O-])c([N+](=O)[O-])c1[O-] | inactive: -1.7%
CCOC(=O)c1ccc(NP(C)(=O)Oc2ccc(F)cc2)cc1 (stereo not given) | inactive: -12.6%
COc1ccc(OP(C)(=O)Nc2ccc(SC(F)(F)F)cc2)cc1 (stereo not given) | inactive: -0.2%
CCN(CC)CCCOC(=O)C(O)(c1ccccc1)C1CCCCC1 (stereo not given) | inactive: 3.9%
CP(=O)(Nc1ccccc1)Oc1ccc(F)cc1 (stereo not given) | inactive: 0.2%
CCCCCOc1ccc(NP(C)(=O)Oc2ccc(Cl)cc2Cl)cc1 (stereo not given) | inactive: -0.8%
O=[N+]([O-])c1cc([N+](=O)[O-])c(OC2CCCCC2O)c([N+](=O)[O-])c1 (stereo not given) | inactive: 5.7%
COc1ccc(OP(C)(=O)Nc2cccc(Br)c2)cc1 (stereo not given) | inactive: -6.6%
CN(C)CCOC(=O)C(O)(c1ccccc1)C1CCCCC1 (stereo not given) | inactive: -0.5%
COc1ccc(NP(C)(=O)Oc2ccccc2OC)cc1 (stereo not given) | inactive: 5.2%
O=[N+]([O-])c1ccc(OP2(=O)COCCO2)cc1 (stereo not given) | inactive: 7.4%
O=[N+]([O-])c1cc([N+](=O)[O-])c(NCC2CCS(=O)(=O)C2)c([N+](=O)[O-])c1 (stereo not given) | inactive: -11.1%
Cc1cc(-c2cccc3ccccc23)c(C)cn1.O=[N+]([O-])c1cc([N+](=O)[O-])c(O)c([N+](=O)[O-])c1 | inactive: -6.4%
CP(=O)(Nc1ccc(SC(F)(F)F)cc1)Oc1ccc(F)cc1 (stereo not given) | inactive: 0.7%
CCOP(C)(=S)SCC(=O)NC(C)(CC)C(=O)O (stereo not given) | inactive: -5.6%
CP(=O)(Nc1ccc2c(c1)OCCO2)Oc1ccccc1 (stereo not given) | inactive: 0.9%
Cc1ccccc1NP(C)(=O)Nc1ccccc1C | inactive: -4.2%
CCN(CC)CC(O)COC(=O)C(O)(c1ccccc1)C1CCCCC1 (stereo not given) | inactive: 0.1%

Compound | displacement
COc1ccc(OP(C)(=O)Nc2ccc(Br)cc2)cc1 (stereo not given) | inactive: 2.7%
COc1ccccc1OP(C)(=O)Nc1c(C)n(C)n(-c2ccccc2)c1=O (stereo not given) | inactive: -0.7%
O=C(OCCCN1CCCC1)C(O)(c1ccccc1)C1CCCCC1 (stereo not given) | inactive: -1.4%
CP(=O)(Oc1ccccc1)N1CCOC1=O (stereo not given) | inactive: 0.4%
CCc1ccc(OP(C)(=O)Nc2cccnc2)cc1 (stereo not given) | inactive: 9%
COc1ccccc1OP(C)(=O)Nc1ccccc1Br (stereo not given) | inactive: 1.7%
CC(C)(C)c1ccc(OP(C)(=O)O)cc1 | inactive: 0.2%
CP(=O)(Nc1ccc(Cl)cc1)Oc1ccc(F)cc1 (stereo not given) | inactive: 3.9%
CN(C)C(=O)c1c([N+](=O)[O-])cc([N+](=O)[O-])cc1[N+](=O)[O-] | inactive: -1.7%
CCOC(=O)c1ccc(NP(C)(=O)Oc2ccc(Cl)cc2)cc1 (stereo not given) | inactive: 3.2%
CP(=O)(OC12CC3CC(CC(C3)C1)C2)OC12CC3CC(CC(C3)C1)C2 | inactive: 3.1%
Cc1cc(C)cc(OP(C)(=O)Nc2cccc(C(F)(F)F)c2)c1 (stereo not given) | inactive: -0.6%
COc1ccccc1OP(C)(=O)Nc1ccc(C)c(C)c1 (stereo not given) | inactive: 3.5%
COc1ccc(OP(C)(=O)Nc2ccccc2Br)cc1 (stereo not given) | inactive: 10.3%
Cc1nc2ccc3ccccc3c2o1.O=[N+]([O-])c1cc([N+](=O)[O-])c(O)c([N+](=O)[O-])c1 | inactive: 1.8%
CP(=O)(Nc1ccc(Cl)cc1Cl)Oc1ccccc1 (stereo not given) | inactive: 5.1%
CP(=O)(OCCOc1ccccc1)OCCOc1ccccc1 | inactive: 2.7%
COc1ccccc1OP(C)(=O)Nc1ccc(Br)cc1 (stereo not given) | inactive: -0.3%
COc1ccc(OP(C)(=O)Nc2ccccn2)cc1 (stereo not given) | inactive: 2.5%
CN(C)CCOC(=O)C(O)(c1ccccc1)C1CCCC1 (stereo not given) | inactive: -1.6%
Cc1c(NP(C)(=O)Oc2ccc(C(C)C)cc2)c(=O)n(-c2ccccc2)n1C (stereo not given) | inactive: -4.8%
O=[N+]([O-])c1cc([N+](=O)[O-])c(Nc2ccccn2)c([N+](=O)[O-])c1 | inactive: 1.8%

Compound | displacement
CP(=O)(Nc1ccccn1)Oc1ccccc1 (stereo not given) | inactive: 1.1%
COc1ccccc1OP(C)(=O)Nc1ccc(C)cc1C (stereo not given) | inactive: 11.6%
CCc1ccc(OP(C)(=O)O)cc1 | inactive: -1.5%
CCN(CC)CCCOC(=O)C(O)(c1ccccc1)c1ccccc1 | inactive: 0.4%
O=[N+]([O-])c1ccc2c(c1)C=Nc1ccccc1O2 | inactive: -0.5%
CC(C)(C)c1ccc(OP(C)(=O)Nc2ccc(SC(F)(F)F)cc2)cc1 (stereo not given) | inactive: 8.8%
Cc1cccc(C)c1OP(C)(N)=O (stereo not given) | inactive: 0.3%
COc1ccccc1OP(C)(=O)Nc1ccc(C)cc1 (stereo not given) | inactive: 5.1%
Cc1ccc(NP(C)(=O)Oc2ccccc2)c(C)c1 (stereo not given) | inactive: -2.9%
CCOC(=O)c1ccc(NP(C)(=O)Oc2ccccc2)cc1 (stereo not given) | inactive: 1.2%
Cc1cc(C)cc(OP(C)(N)=O)c1 (stereo not given) | inactive: 2.7%
COc1ccccc1OP(C)(=O)Nc1cc(Cl)ccc1C (stereo not given) | inactive: 1%
COc1ccc(OP(C)(=O)Nc2cccc(F)c2)cc1 (stereo not given) | inactive: -1.1%
CP(=S)(Nn1cnnc1)Oc1ccccc1 (stereo not given) | inactive: -1.4%
CP(=O)(Nc1ccccc1Br)Oc1ccccc1 (stereo not given) | inactive: -2%
COc1ccccc1OP(C)(=O)Nc1ccccc1 (stereo not given) | inactive: 13.1%
CP(=O)(Nc1ccc(SC(F)(F)F)cc1)Oc1ccc(Cl)cc1 (stereo not given) | inactive: 7.9%
Cc1cccc(C)c1OP(C)(=O)Nc1ccc(SC(F)(F)F)cc1 (stereo not given) | inactive: 1.5%
CP(=O)(Oc1ccccc1)OC(c1ccccc1)C(F)(F)F (stereo not given) | inactive: 6.3%
CP(=O)(NC(=O)Nc1ccccc1)Oc1ccccc1 (stereo not given) | inactive: -0.5%
CCc1ccc(OP(C)(=O)N2CCN(c3ccc([N+](=O)[O-])cc3)CC2)cc1 (stereo not given) | inactive: 13.2%
Cc1cc(C)cc(OP(C)(=O)Nc2ccc(SC(F)(F)F)cc2)c1 (stereo not given) | inactive: 4.6%

Compound | displacement
CCOC(=O)c1ccc(NP(C)(=O)Oc2ccc(OC)cc2)cc1 (stereo not given) | inactive: 0.7%
CCOP(C)(=S)SCC(=O)NC(C)C(=O)O (stereo not given) | inactive: -2.7%
CP(=O)(Nc1ccccn1)Oc1ccc(Cl)cc1 (stereo not given) | inactive: -6.9%
O=[N+]([O-])c1cc([N+](=O)[O-])c(-n2nnc3ccccc32)c([N+](=O)[O-])c1 | inactive: -0.9%
Cc1nc2ccc3ccccc3c2s1.O=[N+]([O-])c1cc([N+](=O)[O-])c(O)c([N+](=O)[O-])c1 | inactive: 5.9%
O=[N+]([O-])c1cc([N+](=O)[O-])c(Nc2nnnn2CCO)c([N+](=O)[O-])c1 | inactive: 1.75%
CCOC(=O)C(CC)C1=NC(C)(C)Cc2ccccc21.O=[N+]([O-])c1cc([N+](=O)[O-])c(O)c([N+](=O)[O-])c1 (stereo not given) | inactive: 5.1%
CN1CCCCC1COC(=O)C1(O)c2ccccc2CCc2ccccc21 (stereo not given) | inactive: -7%
COc1ccccc1OP(C)(=O)Nc1c(C)cccc1C (stereo not given) | inactive: 4.7%
CCCOc1ccc(NP(C)(=O)Oc2ccc(Cl)cc2)cc1 (stereo not given) | inactive: 6.1%
CP(=O)(Nc1ccc(SC(F)(F)F)cc1)Oc1ccccc1 (stereo not given) | inactive: 0.4%
O=C(O)c1cccc(Nc2c([N+](=O)[O-])cc([N+](=O)[O-])cc2[N+](=O)[O-])c1 | inactive: 0%
CC1=NCCc2c1[nH]c1ccccc21.O=[N+]([O-])c1cc([N+](=O)[O-])c(O)c([N+](=O)[O-])c1 | inactive: -7%
COc1ccccc1OP(C)(=O)Nc1cccc(Br)c1 (stereo not given) | inactive: -0.9%
CCOC(=O)c1ccc(NP(C)(=O)Oc2cc(C)cc(C)c2)cc1 (stereo not given) | inactive: -1.2%
Cc1cc(C)cc(OP(C)(=O)Nc2ccc(C)cc2C)c1 (stereo not given) | inactive: 3.8%
Cc1ccc(C)c(NP(C)(=O)Oc2ccccc2)c1 (stereo not given) | inactive: -3.2%
Cc1cc(C)cc(OP(C)(=O)Nc2ccccn2)c1 (stereo not given) | inactive: -1.4%
CP(=O)(Nc1cccc(Br)c1)Oc1ccccc1 (stereo not given) | inactive: -0.1%

Source: PubChem BioAssay AID1817 (Sanford-Burnham Center for Chemical Genomics, 2009)
